## Apparent affinities of Ab-95 variants for a coronavirus HR2 peptide

Data: MIT Lincoln Laboratory AlphaSeq set, Engelhart et al. 2022, doi:10.1038/s41597-022-01779-4, as distributed in FLAb.

Target: peptide PDVDLGDISGINAS, taken from heptad repeat 2 (HR2) of SARS-CoV-2 spike.

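Phage display of a naive human antibody library on the peptide gave the parent. Variants in AAYL52 differ from the parent at up to three CDR positions; double and triple changes were sampled at random. AlphaSeq pools MATa yeast showing the antibodies with MATalpha yeast showing the peptide. Binding brings cells together so that they mate, and sequencing counts the barcode pairs among the diploids. Read counts were normalised to the haploid input and turned into Kd by a linear fit to BCL2-family pairs of known affinity, for each replicate. There are three technical replicates.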

Parent scFv Ab-95: VH joined to VL by three GGGGS repeats. Changes lie in the light chain CDRs alone.
VH: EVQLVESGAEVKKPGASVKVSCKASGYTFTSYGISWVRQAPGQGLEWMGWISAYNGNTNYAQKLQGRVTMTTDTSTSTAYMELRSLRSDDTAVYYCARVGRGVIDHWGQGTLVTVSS
VL: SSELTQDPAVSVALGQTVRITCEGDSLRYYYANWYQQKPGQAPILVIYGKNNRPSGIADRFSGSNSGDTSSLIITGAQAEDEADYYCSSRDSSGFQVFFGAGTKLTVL

Positions count from residue 1 of the parent VL; S55W puts W in place of S.
Affinities are written as log10 Kd with Kd in nM; a lower number is a better binder.
Replicates are averaged; those with no signal do not enter the mean.
A pair that was not seen in any replicate is written "not detected"; this usually means weak binding, but a binder can also be missed.
Background: pairings of library AAYL52 with three empty control strains gave a value in 28% of cases (median 3.91, 5th percentile 2.90). Values in that range, when seen in few replicates, are hard to tell from nonspecific mating. Also given: how often the same scFv was detected with the empty control strains.
Parent in this assay: reference entry 2.31, copy in this library 2.25.

changes | log10 Kd (nM), mean | replicates with signal | empty controls
S55W/S89Q/Q96W | 3.44 | 3 of 3 | 2 of 9
N33V/R53A/S92W | 2.03 | 3 of 3 | 3 of 9
G49R/F95P/Q96L | 4.07 | 1 of 3 | 6 of 9
E23Q/K50L/N51E | 2.87 | 3 of 3 | 1 of 9
E23Q/Y31E/F98M | 1.22 | 3 of 3 | 2 of 9
Y31C/D91L | 4.10 | 2 of 3 | 5 of 9
N33I/S88Y/D91G | 4.14 | 2 of 3 | 4 of 9
S26H/N33H | 4.46 | 1 of 3 | 3 of 9
S26N/A32Q/S55W | 3.76 | 3 of 3 | 4 of 9
A32G/G49A/G94P | 3.41 | 2 of 3 | 4 of 9
Y29V/N51T/S93E | 4.63 | 1 of 3 | 3 of 9
R28H/R53G/S89T | not detected | 0 of 3 | 0 of 9
Y30M/P54E | 1.43 | 3 of 3 | 3 of 9
G49P/D91L/V97T | not detected | 0 of 3 | 4 of 9
S92C/S93H/F95R | 2.06 | 3 of 3 | 5 of 9
L27H/N52Y/S55N | 3.06 | 3 of 3 | 2 of 9
E23R/S88F/S89C | 2.19 | 3 of 3 | 4 of 9
S89V/R90C/S92R | 3.42 | 3 of 3 | 2 of 9
Y31S/P54R/S93M | 2.99 | 3 of 3 | 4 of 9
D25T/Y31C/G49Y | 3.64 | 2 of 3 | 6 of 9
G49M/S92W/F98H | 4.88 | 1 of 3 | 3 of 9
R53Y/G94F/F95H | 3.96 | 1 of 3 | 4 of 9
L27A/Y29V/R90E | not detected | 0 of 3 | 3 of 9
A32P/N52C/F95A | 2.32 | 3 of 3 | 4 of 9
N52I/S88R/R90G | 3.85 | 3 of 3 | 0 of 9
S88G/S89M/V97D | 3.11 | 2 of 3 | 5 of 9
K50Q/S55D/Q96T | 1.43 | 3 of 3 | 0 of 9
A32Q/D91Y/S92D | 4.97 | 2 of 3 | 1 of 9
R28Y/S55C/S88C | 4.24 | 3 of 3 | 4 of 9
G24N/G49S/S88V | 4.06 | 1 of 3 | 6 of 9
P54K/S92G/S93Q | 5.20 | 1 of 3 | 2 of 9
S89R/D91Y/S93G | 1.91 | 3 of 3 | 3 of 9
D25M/F98N | 2.24 | 3 of 3 | 1 of 9
N52W/S92V/F95N | 3.07 | 3 of 3 | 4 of 9
E23M/P54N/S92G | 2.46 | 3 of 3 | 3 of 9
N51T/R53Y/F95W | 3.63 | 1 of 3 | 3 of 9
L27W/Y29R/D91R | 3.54 | 1 of 3 | 6 of 9
N33W/R90A/Q96E | 4.97 | 2 of 3 | 1 of 9
D25Y/G49V/P54W | 4.16 | 1 of 3 | 0 of 9
D25I/Y31E/A32I | 2.74 | 3 of 3 | 2 of 9
R28A/N33S/N51A | 3.44 | 3 of 3 | 6 of 9
D25R/R28D/F95V | 3.07 | 3 of 3 | 4 of 9
Y31H/V97M/F98Y | 1.81 | 3 of 3 | 1 of 9
E23Y/A32K/R90L | not detected | 0 of 3 | 0 of 9
G49T/P54C/V97R | 4.06 | 2 of 3 | 2 of 9
S88G/S93K/V97L | not detected | 0 of 3 | 0 of 9
N52D/R53G/S89N | 4.30 | 1 of 3 | 3 of 9

From the list, the first 5 with no signal in any replicate:

changes | log10 Kd (nM), mean | replicates with signal | empty controls
R28H/R53G/S89T | not detected | 0 of 3 | 0 of 9
G49P/D91L/V97T | not detected | 0 of 3 | 4 of 9
L27A/Y29V/R90E | not detected | 0 of 3 | 3 of 9
E23Y/A32K/R90L | not detected | 0 of 3 | 0 of 9
S88G/S93K/V97L | not detected | 0 of 3 | 0 of 9